Literature values, collected in US8846744B2, “Pharmaceutical compositions of co-crystals of tramadol and coxibs” (Laboratorios del Dr. Esteve, S.A., priority 2010, dated 2014).

Settings: in-vivo; compared to celecoxib alone and to physical mixture of celecoxib and tramadol

(rac)-tramadol.HCl-celecoxib (1:1)
bio-availability regarding celecoxib exposure: improved bio-availability
